# Yeast mating assay 1: variants of the scFv Ab-14

Target: peptide PDVDLGDISGINAS, taken from heptad repeat 2 (HR2) of SARS-CoV-2 spike.

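Phage display of a naive human antibody library on the peptide gave the parent. Variants in AAYL50 differ from the parent at up to three CDR positions; double and triple changes were sampled at random. Affinity was read by AlphaSeq, a pooled yeast mating assay with surface-displayed partners. Pairs that bind mate more often; barcode pairs of the diploids are counted by sequencing. Scores were corrected for input abundance and mapped to Kd with protein pairs of known affinity run in the same pool. Mating was done three times.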

The variants keep the heavy chain, the linker and the frameworks of Ab-14 (scFv order VH, the linker GGGGSGGGGSGGGGS, VL).
VH: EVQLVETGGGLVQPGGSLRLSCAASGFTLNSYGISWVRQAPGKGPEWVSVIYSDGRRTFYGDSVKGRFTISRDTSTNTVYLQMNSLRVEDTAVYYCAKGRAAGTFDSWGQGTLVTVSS
VL: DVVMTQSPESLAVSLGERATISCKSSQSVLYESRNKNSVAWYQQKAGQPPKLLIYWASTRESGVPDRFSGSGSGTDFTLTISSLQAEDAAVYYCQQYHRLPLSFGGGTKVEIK

Changes read parent residue, position, new residue, counted from the first residue of the VL shown.
Scale: log10 of Kd in nM, estimated from mating counts; low values are strong binders.
Replicates are averaged; those with no signal do not enter the mean.
An entry "nd" has no value in the source: the pair was not observed among the diploids in any replicate. This suggests poor binding but is not conclusive.

| changes | log10 Kd (nM), mean | seen in | empty controls |
|---|---|---|---|
| K24R Q95N Q96H | 2.43 | 2/3 | 2/9 |
| S25I S62F P101I | nd | 0/3 | 1/9 |
| Q27F R34T N35D | 0.50 | 3/3 | 1/9 |
| S25R E32F S38C | nd | 0/3 | 2/9 |
| S33V S38G W56H | 1.09 | 3/3 | 0/9 |
| K24E S33E E61G | 5.00 | 1/3 | 2/9 |
| S26G L30V V39N | nd | 0/3 | 1/9 |
| Y31R L102I | 2.58 | 2/3 | 0/9 |
| N37E E61R S103D | 4.09 | 3/3 | 4/9 |
| K36F N37Y S103M | nd | 0/3 | 0/9 |
| S25E A57K H98W | nd | 0/3 | 0/9 |
| S28D Y97W | 1.47 | 3/3 | 5/9 |
| E61W L100I P101N | nd | 0/3 | 0/9 |
| K24T Q96A H98D | 3.38 | 3/3 | 4/9 |
| S26A K36S E61P | 1.67 | 3/3 | 0/9 |
| S28N N37V Q96Y | 5.20 | 2/3 | 1/9 |
| S25C E61Q S103V | 0.77 | 3/3 | 0/9 |
| Q27C E32I Q96M | 5.36 | 2/3 | 7/9 |
| S38P S62A S103M | 2.57 | 3/3 | 2/9 |
| S25Q K36G W56T | 0.99 | 3/3 | 3/9 |
| V29E W56Y R60W | nd | 0/3 | 1/9 |
| S26V A40T Q96G | 4.09 | 1/3 | 0/9 |
| A40G S62Y L100M | nd | 0/3 | 2/9 |
| Y31D T59Q R99M | 0.58 | 3/3 | 3/9 |
| S33Y T59Y H98M | 2.44 | 3/3 | 2/9 |
| Y31Q E32Y R99E | 3.10 | 2/3 | 0/9 |
| R34Y A40D Q95W | nd | 0/3 | 0/9 |
| V29A S62K P101C | 1.61 | 3/3 | 1/9 |
| N37V A57M Q95H | nd | 0/3 | 1/9 |
| S28W K36R L102T | 2.02 | 3/3 | 0/9 |
| N35H R99E L102D | 1.44 | 3/3 | 2/9 |
| S25R S26A Y97L | nd | 0/3 | 1/9 |
| Q27L H98T R99N | 1.87 | 3/3 | 1/9 |
| K24L V29M S62F | 1.74 | 3/3 | 1/9 |
| S26T S62V L102G | 4.01 | 1/3 | 0/9 |
| N35A S103W | 1.02 | 3/3 | 0/9 |
| V29Y S38G R99M | 3.55 | 1/3 | 0/9 |
| E32A Q95Y S103L | 3.20 | 1/3 | 2/9 |
| S25P N35K R60E | 4.25 | 3/3 | 3/9 |
| S26C H98F R99C | 4.18 | 1/3 | 2/9 |
| R34P A57K S58D | 3.02 | 1/3 | 0/9 |
| S28D R34H V39N | nd | 0/3 | 2/9 |
| S25I S33Y Y97I | 0.38 | 3/3 | 2/9 |
| E32Q R99E | 1.21 | 3/3 | 0/9 |
| S26F S33F R99K | 4.71 | 3/3 | 0/9 |
| Q27M V29K S58C | 3.46 | 3/3 | 0/9 |
| S26L Y31L E32L | 1.91 | 3/3 | 0/9 |
| Q27V Q95H L100R | 4.31 | 2/3 | 3/9 |
| S25H N35H T59Q | 2.75 | 3/3 | 3/9 |
| N35M W56C H98D | 1.76 | 3/3 | 2/9 |
| V29C Y31W Q95F | nd | 0/3 | 3/9 |
| S28A K36S E61Y | 0.67 | 3/3 | 3/9 |
| R34M Q96V H98L | 2.43 | 3/3 | 1/9 |
| V39W Q95Y Q96T | 4.39 | 1/3 | 5/9 |
| S62C P101I | 5.49 | 2/3 | 2/9 |
| K24F H98I R99M | 3.26 | 1/3 | 1/9 |
| V39D Q96V P101F | 3.95 | 2/3 | 0/9 |
| N35W E61V L102M | 2.28 | 3/3 | 4/9 |
| S26A W56N P101I | 3.45 | 2/3 | 3/9 |
| A40K S62G | 5.08 | 1/3 | 3/9 |
| N35Q K36F W56M | 1.18 | 3/3 | 1/9 |
| N35M A40P S58A | nd | 0/3 | 1/9 |
| S38A V39C S58Y | nd | 0/3 | 1/9 |
| S28G Y97N R99P | 3.79 | 2/3 | 5/9 |
| Q27H W56D R99V | 0.15 | 3/3 | 5/9 |
| S25I N37F P101A | nd | 0/3 | 0/9 |

The closing 10 entries, repeated:

| changes | log10 Kd (nM), mean | seen in | empty controls |
|---|---|---|---|
| V39D Q96V P101F | 3.95 | 2/3 | 0/9 |
| N35W E61V L102M | 2.28 | 3/3 | 4/9 |
| S26A W56N P101I | 3.45 | 2/3 | 3/9 |
| A40K S62G | 5.08 | 1/3 | 3/9 |
| N35Q K36F W56M | 1.18 | 3/3 | 1/9 |
| N35M A40P S58A | nd | 0/3 | 1/9 |
| S38A V39C S58Y | nd | 0/3 | 1/9 |
| S28G Y97N R99P | 3.79 | 2/3 | 5/9 |
| Q27H W56D R99V | 0.15 | 3/3 | 5/9 |
| S25I N37F P101A | nd | 0/3 | 0/9 |

Three control strains display no target. For library AAYL50, 18% of the pairings with them gave a signal, with a median of 4.19 and one signal in twenty below 2.99, so weak values seen in few replicates may be background. The control count says in how many pairings with the empty strains this scFv gave a signal.

From the AlphaSeq antibody data of Engelhart et al. 2022 (doi:10.1038/s41597-022-01779-4), copy in the FLAb collection.